# From publication PMC5175340, “eIF2β is critical for eIF5-mediated GDP-dissociation inhibitor activity and translational control” (Nucleic Acids Research, 2016)
# The chains behind the UniProt entries cited, without tags or fusion partners.
# UniProt P09064, whole entry E189K: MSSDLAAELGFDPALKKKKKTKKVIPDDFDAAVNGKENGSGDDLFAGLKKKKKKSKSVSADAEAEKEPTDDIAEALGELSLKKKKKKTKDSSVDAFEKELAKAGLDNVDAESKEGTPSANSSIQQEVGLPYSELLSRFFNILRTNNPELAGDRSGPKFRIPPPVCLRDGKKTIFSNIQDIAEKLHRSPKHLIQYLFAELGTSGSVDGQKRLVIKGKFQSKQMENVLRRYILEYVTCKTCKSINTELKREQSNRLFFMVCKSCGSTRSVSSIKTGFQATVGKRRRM
# Molecular target: FLAG-eIF2β-E189K (sui3-E189K) (S. cerevisiae) (UniProt P09064)
# Assay: co-IP; anti-FLAG immune precipitation of FLAG-eIF2β (WT or E189K) and associated proteins from yeast whole cell extracts; untagged control; quantitative IR western blotting (Li-Cor), at least three repeats
substance,measurement,value
"eIF2B, P14741 1-305; P32502 1-381; P09032 1-578; P12754 1-651; P32501 1-712",reduction in association relative to WT FLAG-eIF2β,20%
